Measured values published in US20030203373A1 (priority 2002, published 2003).
Values joined by “and” are separate entries in the source; they are usually repeats but may differ in a detail not shown here. Identical values can stand only once. Like-named read-outs stand apart in the source and are kept apart here.

Biological target: T1, ACE from pig kidney (Sus scrofa, UniProt F1RRW5)
T1 construct: 1 mU ACE from pig kidney (EC 3.4.15.1 (Sigma)); purchased Sigma; host or cells: pig kidney (tissue-derived enzyme)
T1 sequence (F1RRW5 34-1309): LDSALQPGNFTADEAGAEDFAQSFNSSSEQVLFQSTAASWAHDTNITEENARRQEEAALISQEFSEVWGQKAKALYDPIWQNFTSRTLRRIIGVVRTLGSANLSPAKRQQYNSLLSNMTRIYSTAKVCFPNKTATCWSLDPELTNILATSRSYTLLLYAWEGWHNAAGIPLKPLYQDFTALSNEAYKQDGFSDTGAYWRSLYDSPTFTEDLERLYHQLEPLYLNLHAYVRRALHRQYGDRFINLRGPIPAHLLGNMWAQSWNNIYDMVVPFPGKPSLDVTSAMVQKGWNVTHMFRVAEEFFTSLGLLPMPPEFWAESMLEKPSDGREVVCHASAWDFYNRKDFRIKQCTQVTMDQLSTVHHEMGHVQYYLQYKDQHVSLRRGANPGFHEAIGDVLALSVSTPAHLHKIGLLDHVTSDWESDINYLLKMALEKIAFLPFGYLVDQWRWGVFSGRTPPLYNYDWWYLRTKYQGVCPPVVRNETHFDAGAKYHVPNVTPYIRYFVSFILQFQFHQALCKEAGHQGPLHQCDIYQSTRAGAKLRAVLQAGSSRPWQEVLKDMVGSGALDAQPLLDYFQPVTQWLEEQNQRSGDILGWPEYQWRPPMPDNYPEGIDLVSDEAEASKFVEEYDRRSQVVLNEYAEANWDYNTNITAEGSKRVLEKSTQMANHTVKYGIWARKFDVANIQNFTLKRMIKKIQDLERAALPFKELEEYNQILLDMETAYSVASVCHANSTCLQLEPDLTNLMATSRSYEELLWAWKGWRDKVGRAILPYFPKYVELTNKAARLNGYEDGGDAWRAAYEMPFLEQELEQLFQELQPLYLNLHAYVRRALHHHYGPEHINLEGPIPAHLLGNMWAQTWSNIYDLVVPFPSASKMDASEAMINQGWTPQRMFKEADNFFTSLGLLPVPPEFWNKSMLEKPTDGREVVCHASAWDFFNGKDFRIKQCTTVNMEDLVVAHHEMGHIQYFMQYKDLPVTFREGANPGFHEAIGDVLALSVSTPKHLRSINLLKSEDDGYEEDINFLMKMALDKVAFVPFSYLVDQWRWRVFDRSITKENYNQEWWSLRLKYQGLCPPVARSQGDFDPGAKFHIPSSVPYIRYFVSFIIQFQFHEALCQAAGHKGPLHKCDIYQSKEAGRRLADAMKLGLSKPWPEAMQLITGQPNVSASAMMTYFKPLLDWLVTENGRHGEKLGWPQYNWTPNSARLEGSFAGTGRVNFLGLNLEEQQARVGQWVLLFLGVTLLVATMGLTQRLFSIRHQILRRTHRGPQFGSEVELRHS
Experiment: biochemical

[1] = inhibitor 3.125 μM, replicates A-D
[2] = inhibitor 6.25 μM, replicates A-D
[3] = inhibitor 12.5 μM, replicates A-D
[4] = inhibitor 25 μM, replicates A-D
[5] = inhibitor 50 μM, replicates A-D
[6] = inhibitor 100 μM, replicates A-D
[7] = inhibitor 200 μM, replicates A-D

CC(C)C[C@H](NC(=O)[C@H](C)NC(=O)[C@@H]1CCC(=O)N1)C(=O)N[C@@H](CO)C(=O)N1CCC[C@H]1C(=O)N[C@@H](CC(C)C)C(=O)N1CCC[C@H]1C(=O)N[C@@H](CCC(=O)O)C(=O)N[C@H](C(=O)N1CCC[C@H]1C(=O)N1CCC[C@H]1C(=O)O)C(C)C [Peptide S493]
IC50: 20 µM

CC(C)C[C@H](NC(=O)[C@H](C)NC(=O)[C@H](C)NC(=O)CNC(=O)[C@H](C)NC(=O)[C@H](CCC(=O)O)NC(=O)[C@@H](N)CCC(=O)O)C(=O)N[C@@H](CO)C(=O)N1CCC[C@H]1C(=O)N[C@@H](CC(C)C)C(=O)N1CCC[C@H]1C(=O)N[C@@H](CCC(=O)O)C(=O)N[C@H](C(=O)N1CCC[C@H]1C(=O)N1CCC[C@H]1C(=O)O)C(C)C [Peptide S541]
IC50 (ACE from pig kidney, determined graphically, read-out: IC50-value (ACE inhibition)): 48 µM | fluorescence reading (ACE Inhibitor Assay) (inhibitor 0.39 μM, replicates A-D): 955811 and 921346 and 917688 and 967573 | % inhibition (ACE Inhibitor Assay) (inhibitor 0.39 μM, replicates A-D, 0.39 µM): 2.03% and 5.58% and 5.96% and 0.82% | fluorescence reading (ACE Inhibitor Assay) (inhibitor 0.78125 μM, replicates A-D): 907185 and 888487 and 903844 and 943566 | % inhibition (ACE Inhibitor Assay) (inhibitor 0.78125 μM, replicates A-D, 0.78125 µM): 7.04% and 8.96% and 7.38% and 3.3% | fluorescence reading (ACE Inhibitor Assay) (inhibitor 1.5625 μM, replicates A-D): 904012 and 844202 and 857232 and 946248 | % inhibition (ACE Inhibitor Assay) (inhibitor 1.5625 μM, replicates A-D, 1.5625 µM): 7.36% and 13.52% and 12.18% and 3.02% | fluorescence reading (ACE Inhibitor Assay) [1]: 803411 and 810684 and 810188 and 859457 | inhibition at 3.125 µM [1]: 17.7% | % inhibition (ACE Inhibitor Assay) (inhibitor 3.125 μM, replicates A-D, 3.125 µM): 16.97% and 17.03% and 11.95% | fluorescence reading (ACE Inhibitor Assay) [2]: 836560 and 809014 and 817520 and 879836 | inhibition at 6.25 µM [2]: 14.3% | % inhibition (ACE Inhibitor Assay) (inhibitor 6.25 μM, replicates A-D, 6.25 µM): 17.15% and 16.27% and 9.85% | fluorescence reading (ACE Inhibitor Assay) [3]: 788769 and 769930 and 757658 and 781107 | inhibition at 12.5 µM [3]: 21.5% | % inhibition (ACE Inhibitor Assay) (inhibitor 12.5 μM, replicates A-D, 12.5 µM): 21.17% and 22.44% and 20.02% | fluorescence reading (ACE Inhibitor Assay) [4]: 639406 and 631484 and 614518 and 661658 | inhibition at 25 µM [4]: 34.6% | % inhibition (ACE Inhibitor Assay) (inhibitor 25 μM, replicates A-D, 25 µM): 35.43% and 37.18% and 32.32% | fluorescence reading (ACE Inhibitor Assay) [5]: 480002 and 474783 and 474901 and 490677 | inhibition at 50 µM [5]: 51% | % inhibition (ACE Inhibitor Assay) (inhibitor 50 μM, replicates A-D, 50 µM): 51.57% and 51.55% and 50.07% | fluorescence reading (ACE Inhibitor Assay) [6]: 346560 and 319033 and 313789 and 351975 | inhibition at 100 µM [6]: 64.8% | % inhibition (ACE Inhibitor Assay) (inhibitor 100 μM, replicates A-D, 100 µM): 67.6% and 68.17% and 64.21% | fluorescence reading (ACE Inhibitor Assay) [7]: 208164 and 201991 and 204112 and 215674 | inhibition at 200 µM [7]: 79% | % inhibition (ACE Inhibitor Assay) (inhibitor 200 μM, replicates A-D, 200 µM): 79.86% and 79.44% and 78.25%

CC(C)[C@H](NC(=O)[C@H](CC(N)=O)NC(=O)[C@H](CCC(=O)O)NC(=O)[C@H](CC(=O)O)NC(=O)[C@H](CO)NC(=O)[C@H](C)NC(=O)[C@H](CCCNC(=N)N)NC(=O)[C@@H]1CCCN1)C(=O)N1CCC[C@H]1C(=O)N1CCC[C@H]1C(=O)O [Peptide S683]
IC50: 65 µM
